One experiment addresses immobilized Eq-BChE (Equus caballus, UniProt P81908). Kind of experiment: Inhibition of immobilized Eq-BChE with DFP and reactivation with TMB4. Particulars: compared with HI-6.
The next experiment concerns the target mammalian AChE (Bos taurus, UniProt P23795). Kind of experiment: Sensitivity of soluble and immobilized mammalian AChE to dichlorophos.

The chains behind the UniProt entries cited, without tags or fusion partners. Where a name states a change or a piece, a line headed by the entry shows the natural chain unless it says otherwise.
UniProt P81908: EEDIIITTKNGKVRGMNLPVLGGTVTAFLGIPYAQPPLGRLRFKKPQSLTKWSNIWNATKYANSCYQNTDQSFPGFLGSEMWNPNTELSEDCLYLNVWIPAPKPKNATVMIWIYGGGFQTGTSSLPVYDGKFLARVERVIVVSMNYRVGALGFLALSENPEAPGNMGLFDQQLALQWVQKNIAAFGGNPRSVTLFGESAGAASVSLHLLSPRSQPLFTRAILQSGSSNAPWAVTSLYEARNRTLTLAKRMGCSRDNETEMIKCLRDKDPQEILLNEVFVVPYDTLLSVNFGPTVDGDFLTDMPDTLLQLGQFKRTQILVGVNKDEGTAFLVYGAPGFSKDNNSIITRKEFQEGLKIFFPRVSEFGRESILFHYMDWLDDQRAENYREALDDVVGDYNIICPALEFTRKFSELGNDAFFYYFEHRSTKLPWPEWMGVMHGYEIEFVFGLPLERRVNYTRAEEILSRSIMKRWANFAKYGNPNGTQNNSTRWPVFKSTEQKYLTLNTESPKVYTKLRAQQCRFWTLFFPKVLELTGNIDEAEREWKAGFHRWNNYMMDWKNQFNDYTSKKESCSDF
UniProt P23795: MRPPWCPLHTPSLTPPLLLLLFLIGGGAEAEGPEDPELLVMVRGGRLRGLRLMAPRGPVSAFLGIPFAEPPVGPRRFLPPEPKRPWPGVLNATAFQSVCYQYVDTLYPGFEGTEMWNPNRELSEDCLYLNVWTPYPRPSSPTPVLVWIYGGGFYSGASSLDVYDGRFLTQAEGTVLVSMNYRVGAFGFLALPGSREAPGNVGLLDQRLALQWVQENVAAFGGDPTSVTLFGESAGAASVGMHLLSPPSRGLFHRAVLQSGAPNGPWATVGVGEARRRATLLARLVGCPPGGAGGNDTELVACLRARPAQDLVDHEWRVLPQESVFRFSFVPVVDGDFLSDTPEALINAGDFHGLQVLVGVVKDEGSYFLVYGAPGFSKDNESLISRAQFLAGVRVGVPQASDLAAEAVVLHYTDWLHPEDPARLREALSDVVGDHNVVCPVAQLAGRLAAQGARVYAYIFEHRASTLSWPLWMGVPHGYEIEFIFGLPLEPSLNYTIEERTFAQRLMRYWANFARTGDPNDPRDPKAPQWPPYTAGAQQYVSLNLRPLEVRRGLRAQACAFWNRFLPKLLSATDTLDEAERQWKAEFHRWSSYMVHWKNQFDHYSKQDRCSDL

“N,N′-trimethylene bis(pyridinium-4-aldoxime) dibromide”: the “reactivation of inhibited Eq-BChE” value at immobilized Eq-BChE is “more efficient reactivator of inhibited Eq-BChE than is HI-6”.

As to dichlorophos, the “slope for the sponge less than the soluble enzyme” value on mammalian AChE (5 minutes exposure) was “about 20%”. Further, the “EC50 values, immobilized sensor versus soluble enzyme” value at mammalian AChE (5 minutes exposure in 50 mM phosphate buffer) is listed as “very similar EC50 values”.
